Here are results for 89 compounds from PubChem BioAssay AID504326 (The Scripps Research Institute Molecular Screening Center, 2011).

Chains of the proteins cited; added tags and fusions are not shown.
UniProt P35372, whole entry, looked up: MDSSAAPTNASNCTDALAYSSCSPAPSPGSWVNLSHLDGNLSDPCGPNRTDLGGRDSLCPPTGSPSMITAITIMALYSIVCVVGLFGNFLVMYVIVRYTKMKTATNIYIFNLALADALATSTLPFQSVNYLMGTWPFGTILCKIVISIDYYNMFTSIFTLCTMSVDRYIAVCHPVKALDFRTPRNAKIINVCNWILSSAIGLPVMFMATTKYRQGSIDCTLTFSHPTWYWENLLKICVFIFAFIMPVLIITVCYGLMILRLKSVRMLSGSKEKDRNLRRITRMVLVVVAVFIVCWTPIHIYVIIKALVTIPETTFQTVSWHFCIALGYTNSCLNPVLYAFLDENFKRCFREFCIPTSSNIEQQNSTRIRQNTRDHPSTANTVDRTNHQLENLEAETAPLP
UniProt P41143, whole entry, looked up: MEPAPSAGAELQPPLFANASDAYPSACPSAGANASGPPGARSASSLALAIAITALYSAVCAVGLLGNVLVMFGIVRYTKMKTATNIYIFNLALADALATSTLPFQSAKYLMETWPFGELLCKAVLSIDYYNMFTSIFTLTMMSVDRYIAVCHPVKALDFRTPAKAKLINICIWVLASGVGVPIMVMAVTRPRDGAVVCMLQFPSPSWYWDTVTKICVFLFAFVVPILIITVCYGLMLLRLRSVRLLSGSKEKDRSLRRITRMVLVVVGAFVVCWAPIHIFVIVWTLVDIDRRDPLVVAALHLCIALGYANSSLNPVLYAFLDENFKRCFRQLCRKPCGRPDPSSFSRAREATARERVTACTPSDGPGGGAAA

Only a part is listed here, and it is no random draw. Activity calls are given as the source filed them. Rule as the data show it: active = activation above about 18%; inactive = the rest.

The assay addresses Mu-type opioid receptor (Homo sapiens) + Delta-type opioid receptor (Homo sapiens) (UniProt P35372+P41143). The assay is described as follows: inducers of mu-delta opioid receptor heterodimers – cell-based, luminescence, primary screen (AID 504326).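 Also: 0% = vehicle-treated cells and 100% = reference agonist.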 Particulars: cells, OPRM1-OPRD1 heterodimerization, at 9.3 µM, hits give high values.
`CN1C(=O)CC(n2c(CO)nc3ccccc32)C1=O` (centres undefined): the activation is inactive: -0.93%.

For `O=C(CCNC(=O)N1CCn2c1nc1ccccc12)NCc1ccc(Cl)cc1`, the activation is inactive: -1.65%.

In the case of `Cc1cc(NC(=O)CSc2nc3ccccc3n2CC(=O)N2CCC(C)CC2)no1`, the activation was inactive: -0.9%.

For the compound `Cc1nc2cc(C(F)(F)F)ccc2n1C1CCN(Cc2nnnn2CCc2ccccc2)CC1`, the activation was inactive: -2.39%.

As for `CC(=O)Nc1ccc(Oc2c([N+](=O)[O-])cc([N+](=O)[O-])cc2[N+](=O)[O-])cc1`, the activation was inactive: -2.92%.

`CC(=O)c1ccc(N2CC2c2ccncc2)cc1` (centres undefined): the activation is inactive: -3.79%.

For `N#C/C(=C\c1ccc(N(CCBr)CCBr)cc1)C(N)=O`, the activation was inactive: -3.16%.

Take `O=C(Cn1c(SCC(=O)N2CCCc3ccccc32)nc2ccccc21)N1CCCC1`: the activation was inactive: -2.7%.

`Cc1ccc2c(c1)C1CN(C)CCC1N2S(=O)(=O)c1cccc(F)c1` (centres undefined): the activation was inactive: -4.85%.

`O=C(Cn1cnc2ccccc21)N/N=C/C(Br)=C/c1ccccc1`: the activation was inactive: 2.91%.

For `Cn1c(=O)c2c(ncn2CC(=O)N/N=C/C(Cl)=C/c2ccccc2)n(C)c1=O`, the activation was inactive: -0.82%.

With `COC(=O)C1(C)COP(=O)(NCc2ccccc2)OC1` (centres undefined), the activation is inactive: -3.24%.

Regarding `CC(NC(=O)CCCCCNC(=O)N1CCn2c1nc1ccccc12)c1ccccc1` (centres undefined), the activation was inactive: -0.74%.

As to `Cc1ccc2c(c1)C1CN(C)CCC1N2C(=O)COc1ccc(N(C)S(=O)(=O)c2cccs2)cc1` (centres undefined), the activation is inactive: -0.43%.

Consider `O=C(CCCCCNC(=O)N1CCn2c1nc1ccccc12)N[C@H](C(=O)O)c1ccccc1`, for which the activation is inactive: -3.42%.

Turning to `COC(=O)c1ccccc1NC(=O)Cn1c(-c2nonc2N)nc2ccccc21`, the activation is inactive: -2.78%.

Consider `CC(C)(C)NC(=O)Cn1c(SCC(=O)Nc2nccs2)nc2ccccc21`, for which the activation was inactive: -2.29%.

As to `Cc1ccccc1CN(C)C(=O)COC(=O)C(O)(c1ccccc1)c1ccccc1`, the activation is inactive: -1.41%.

`Cc1ccc2c(c1)C1CN(C)CCC1N2C(=O)Nc1cccc(Cl)c1` (centres undefined): the activation is inactive: 5.21%.

Turning to `CCOc1ccc(S(=O)(=O)N(C)c2ccc(OCC(=O)N3c4ccc(C)cc4C4CN(C)CCC43)cc2)cc1` (centres undefined), the activation is inactive: -0.88%.

Take `Cc1ccccc1Oc1ccc2c(c1)[C@@H]1C[C@H](N(C)C(=O)Nc3cc(Cl)cc(Cl)c3)[C@H]([C@H](C)O)C(=O)N1CC2`: the activation is inactive: -3.08%.

With `CN(C)CCn1c(N)nc2ccccc21`, the activation is inactive: 1.04%.

For the compound `CN(C)C(=O)CSc1nc2ccccc2n1CC(=O)N1CCN(c2ccccc2)CC1`, the activation is inactive: -0.96%.

In the case of `C[C@H]1OP(=O)(Oc2ccccc2)C[C@@H]2O[C@@H]21` (some centres undefined), the activation is inactive: -0.37%.

In the case of `CCC(=O)Nc1nc2ccccc2n1CCN(C)C`, the activation is inactive: -1.23%.

As for `Cc1ccc2c(c1)C1CN(C)CCC1N2Sc1ccccc1[N+](=O)[O-]` (centres undefined), the activation was inactive: 0.81%.

`C[C@@H]1C=CCP(=O)(Oc2ccccc2)O1` (some centres undefined): the activation is inactive: -1.02%.

With `C[C@H](O)[C@@H]1C(=O)N2CCc3ccc(-c4ccccc4)cc3[C@@H]2C[C@@H]1N(C)C(=O)c1ccc(C#N)cc1`, the activation was inactive: -1.3%.

As to `O=C(CCNC(=O)N1CCn2c1nc1ccccc12)NCc1ccccc1Cl`, the activation was inactive: -3.3%.

For the compound `CCc1cc(O)c([N+](=O)[O-])c(C)c1[N+](=O)[O-]`, the activation was inactive: -2.98%.

Consider `CCOC(=O)c1ccc(NC(=O)Cn2c(-c3nonc3N)nc3ccccc32)cc1`, for which the activation is inactive: 12.2%.

For `CSc1nc2ccccc2n1CC(=O)Nc1c(C)n(C)n(-c2ccccc2)c1=O`, the activation was inactive: 1.2%.

As for `Cc1ccc2c(c1)C1C[N+](C)(CC(=O)c3ccccc3)CCC1N2C(=O)c1ccccc1Cl` (centres undefined), the activation was inactive: 0.63%.

Consider `CC(/C=C/c1ccccc1)=N/NC(=O)CCC(=O)Nc1ccccc1C`, for which the activation is inactive: -0.93%.

For the compound `COc1cccc(C(=O)CSc2nc3ccccc3n2CC(=O)N2CCOCC2)c1`, the activation is inactive: -3.15%.

As to `O=C(Cn1c(-c2cncs2)nc2ccccc21)NCCc1ccccc1`, the activation is inactive: -0.82%.

In the case of `O=C(Cn1c(CO)nc2ccccc21)Nc1ccccc1Cl`, the activation is inactive: -1.17%.

For `COc1ccc(Cl)cc1NC(=O)CN(C)C(=O)Cn1cnc2c1c(=O)n(C)c(=O)n2C`, the activation is inactive: -0.27%.

Consider `CC(C)(C)C(=O)NC(Sc1ccccc1)C(Cl)(Cl)Cl` (centres undefined), for which the activation is inactive: 4.79%.

In the case of `COc1ccc(/C=N/NC(=O)Cn2cnc3c2c(=O)n(C)c(=O)n3C)cc1`, the activation is inactive: -3.37%.

Regarding `COC(=O)C1=C(Cn2cnc3ccccc32)NC(=O)NC1c1cc(C)ccc1C` (centres undefined), the activation was inactive: -0.43%.

As to `c1ccc(CN2CCC(Nc3nc(-c4cccnc4)nc4ccccc34)CC2)cc1`, the activation was inactive: -1.64%.

Consider `C[C@H](NC(=O)N1CCn2c1nc1ccccc12)C(=O)N1CCCCC1`, for which the activation is inactive: -2.86%.

Regarding `CCc1cccc(CC)c1N(COC)C(=O)Cn1c(CO)nc2ccccc21`, the activation was inactive: -4.1%.

Take `CCOC(=O)CC[C@H](NC(=O)Cn1cnc2c(SC)nc(N)nc21)C(=O)OCC`: the activation was inactive: -3.24%.

On to `CSc1nc2ccccc2n1CC(=O)Nc1ccc(C)c(C)c1`, for which the activation was inactive: -0.6%.

Turning to `CC(C)(C)NC(=O)Cn1c(SCC(N)=O)nc2ccccc21`, the activation was inactive: -1.82%.

Consider `O=C(Cn1c(NCCO)nc2ccccc21)Nc1ccc2c(c1)OCCCO2`, for which the activation is inactive: -0.22%.

Regarding `CC(C)CCNC(=O)CC1C(=O)N(Cc2ccccc2)C(C)c2nc3ccccc3n21` (centres undefined), the activation was inactive: -2.17%.

In the case of `N#Cc1cccc(NC(=O)Cn2c3[n+](c4ccc(C(F)(F)F)cc42)CCCCC3)c1`, the activation was inactive: -2.38%.

Take `Cc1ccc2c(c1)C1CN(C)CCC1N2C(=O)COc1ccc(N(C)C(=O)c2ccccc2)cc1` (centres undefined): the activation is inactive: -2.31%.

Turning to `N=c1n(CCCOc2ccccc2Cl)c2ccccc2n1CC(N)=O`, the activation is inactive: -3.69%.

As for `CC1CN(C(=O)Cn2cnc3c2c(=O)n(C)c(=O)n3C)CC(C)O1` (centres undefined), the activation is inactive: -2%.

With `C[C@H](NC(=O)N1CCn2c1nc1ccccc12)C(=O)NCc1ccccc1`, the activation is inactive: -0.52%.

With `COc1cccc(CNC(=O)[C@H](CCSC)NC(=O)N2CCn3c2nc2ccccc23)c1`, the activation was inactive: -2.79%.

Turning to `Cc1nc2ccccc2n1CC(=O)N1CC(=O)Nc2ccccc21`, the activation was inactive: 4.59%.

`COC(=O)c1ccc(CNC(=O)Cn2cnc3c(NCc4ccccc4)ncnc32)cc1`: the activation is inactive: -0.42%.

For `O=P1(Nc2nc3ccc(Cl)cc3s2)COc2ccccc2O1` (centres undefined), the activation was inactive: -0.91%.

As to `CCn1c(=O)c2c(nc3n2CCN3c2ccccc2)n(C)c1=O`, the activation was inactive: -1.5%.

Consider `O=C(Cn1cnc2c(OCc3ccccc3)ncnc21)NCc1ccccc1`, for which the activation was inactive: -4.9%.

Take `COCCNC(=O)Cn1cnc2c1c(=O)n(C)c(=O)n2C`: the activation was inactive: -2.69%.

Turning to `CCOc1ccc(C2=NCC(CBr)S2)cc1` (centres undefined), the activation was inactive: -2.95%.

In the case of `COCCN1CCn2c(nc3cc(NC(C)=O)ccc32)C1`, the activation was inactive: -1.33%.

In the case of `COCCNC(=O)Cn1c(=O)n(C)c2ccccc21`, the activation was inactive: -1.3%.

Consider `Cn1c(=O)c2c(ncn2CC(=O)N2CCN(c3ccccc3)CC2)n(C)c1=O`, for which the activation was inactive: -2.25%.

`C[C@H](O)[C@@H]1C(=O)N2CCc3ccc(-c4cccc(F)c4)cc3[C@@H]2C[C@@H]1N(C)C(=O)Nc1ccccc1`: the activation was inactive: 1.86%.

Consider `COCCN1CCn2c(nc3cc(Nc4nnc(C)c5ccccc45)ccc32)C1`, for which the activation was inactive: -3.33%.

Regarding `CCc1cccc(C)c1N(C(=O)Cn1c(CO)nc2ccccc21)C(C)COC` (centres undefined), the activation is inactive: -1.24%.

For the compound `CC(NC(=O)COC(=O)C(O)(c1ccccc1)c1ccccc1)c1ccccc1` (centres undefined), the activation was inactive: 0.76%.

In the case of `CC1CCCN(C(=O)Cn2cnc3c2c(=O)n(C)c(=O)n3C)C1` (centres undefined), the activation was inactive: -3.04%.

For the compound `Cc1ccc(CNC(=O)Cn2cnc3c(NC(=O)OCc4ccccc4)ncnc32)o1`, the activation is inactive: -2.75%.

With `CCOC(=O)C1=C(Cn2cnc3ccccc32)NC(=O)NC1c1ccc(Cl)cc1` (centres undefined), the activation was inactive: -0.44%.

In the case of `Cc1ccccc1OP(=O)(Nc1ccccn1)Oc1ccccc1C`, the activation was inactive: -0.23%.

`O=c1c2cc([N+](=O)[O-])ccc2[nH]c2c([N+](=O)[O-])cc([N+](=O)[O-])cc12`: the activation was inactive: 2.11%.

`CN(C)CCn1cnc2ccccc21`: the activation was inactive: -2.38%.

Regarding `CN(C)C(=O)Oc1noc2ccccc12`, the activation is inactive: -2.03%.

Consider `Cc1ccc(OCCNC(=O)Cn2cnc3c(=O)n(C)c(=O)n(C)c32)cc1C`, for which the activation was inactive: -0.91%.

On to `CC(/C=N/NC(=O)Cn1cnc2c1c(=O)n(C)c(=O)n2C)=C\c1ccco1`, for which the activation was inactive: -2.39%.

As to `Cn1c(=O)c2c(ncn2CC(=O)NC2CCCCC2)n(C)c1=O`, the activation is inactive: -1.51%.

With `COC(=O)c1cc2c(s1)N=C(c1ccccc1)N(C)P2(=O)N1CCOCC1` (centres undefined), the activation was inactive: 0.81%.

Consider `CC(C)NC(=O)Cn1cnc2c1c(=O)n(C)c(=O)n2C`, for which the activation was inactive: -1.59%.

Take `Cc1sc2ncnc(NC3CCN(Cc4ccccc4)CC3)c2c1C`: the activation was inactive: 2.65%.

`Cc1ccc(OP(=O)(Nc2ccccn2)Oc2ccc(C)cc2)cc1`: the activation was inactive: -1.73%.

For `CC(=O)NC(SC(=S)N(CC(C)C)CC(C)C)C(Cl)(Cl)Cl` (centres undefined), the activation was inactive: 3.08%.

As to `CC(C(=O)Nc1ccc2c(c1)OCO2)n1cnc2c1c(=O)n(C)c(=O)n2C` (centres undefined), the activation was inactive: -2.78%.

`Cn1c(=O)c2c(ncn2CC(=O)Nc2ccccc2N2CCOCC2)n(C)c1=O`: the activation was inactive: -1.16%.

As to `CCc1cccc(CC)c1N(COC)C(=O)Cn1c(C(C)O)nc2ccccc21` (centres undefined), the activation was inactive: -2.09%.

For the compound `FC(F)(F)c1nc2ccccc2n1CCNc1nc(CN2CCCCC2)cs1`, the activation is inactive: -2.6%.

Turning to `O=C1CC(N2CCC(n3c(=O)[nH]c4ccccc43)CC2)C(=O)N1Cc1ccccc1` (centres undefined), the activation is inactive: -1.33%.
